Experiments:
tibialis anterior muscle = assay: Muscle recovery in barium chloride induced injury model, twitch force; type: in vivo, C57BL/6 mice; conditions: day 17, 7 consecutive days i.v., compared to control vehicle, p<0.05
Description: FIG. 17A is a representation of an experimental protocol to investigate muscle recovery from an injury using different treatments. To induce muscle injury in vivo, C57BL/6 mice were anesthetized by isoflurane inhalation. At day 2 of test article dosing, left tibialis anterior muscles were injected with 50 μL of BaCl2 solution (Sigma-Aldrich B0750, 1.2% in sterile 0.9% NaCl) throughout the length of the tibia with a 30-gauge insulin syringe. Right tibialis anterior muscles were injected with 50 μL of saline as contralateral uninjured controls.
Left hindlimbs were wrapped with 2 layers of surgical tape and sports tape (Durapore 3M 1538-2 and Hampton Adams 8542028768) during the immobilization phase for 10 days and unwrapped during the recovery phase for 10 days. […] Animals were monitored daily for toe circulation and tape integrity.
The hindlimb of each anesthetized mouse was prepare for torque measurements above the ankle as described previously (Gerlinger-Romero F, et al., J. Vis. Exp. 58696 (2019), doi:10.3791/58696)). Twitch force and tetanus force were recorded with the settings as described previously. […] Both the left and hind limbs were recorded prior to dosing for baseline measurements, and values at the end of the study (day 17) compared to the initial readings (day 0). […]

C2C12 cells = assay: Lactate production in C2C12 myotubes; type: cell-based; conditions: 5 mg/mL (IV-1 paste 0.25, 2.5 and 5 mg/mL), 2% horse serum, versus untreated control
Description: Lactate is known to promote myoblast differentiation and myotube hypertrophy (See, e.g. Tsukamoto S et al., Int. J. Molec. Sci. 19:3649 (2018)). Thus, measuring lactate production in myoblasts can be an indicator of both differentiation and growth in muscle. C12C2 myoblasts were differentiated to myotubes for 5 days in vitro in 2% horse serum (HS) differentiation medium. At day 5, various treatments were added to the cells. Based on the assessed EC50 values by glucose utilization the plasma fractions were added at 5 mg/mL to the media, except for IV-1 paste which was added at three different concentrations (0.25, 2.5, and 5 mg/mL). Also at day 5, positive control metformin was added (1 mM). At day 6, the cells were again treated with metformin and oligomycin (250 nM) as positive controls and 2-Deoxy-D-Glucose (2-DG, 100 nM) as negative control for either three (3) hours or five (5) hours (FIGS. 21A and 21B, respectively). After 3 or 5 hours, the media was deproteinized and subsequently, the amount of lactate produced was measured by an enzymatic reaction.

rhAlbumin: recombinant human albumin
twitch force, maximal torque (tibialis anterior muscle): failed to produce a change maximal torque that was significantly increased | lactate production (C2C12 cells; 3 hours): no increase in lactate production | lactate production (C2C12 cells; 5 hours): no increase in lactate production

Reference: patent US12059453B2, “Blood plasma fractions for use in muscle regeneration” (Alkahest, Inc., priority 2019, dated 2024)
